The list shows a part of the results, in another mix than the full data. Some results for these compounds are left out of this collection, so the calls shown say nothing about other tests. Calls of active or inactive are those of the source.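 How the source made its calls: active means activation of at least 60% and not above a set upper limit (about 1 call in 100 departs from these limits); inconclusive means activation of 40% to 60%, or above that upper limit; inactive means activation under 40%.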
What follows are molecules tested against Probable G-protein coupled receptor 32 (Homo sapiens) (UniProt O75388) (assay: qHTS for Agonists of Human Resolvin D1 Receptor DRV1). Details: CHO-K1 GPR32 beta-arrestin PathHunter luminescence, 90 min; at 76.9 µM; hits give high values; zero percent set by DMSO-only wells.
Further: 0% is about no effect.

Amino acid sequences for entries named in this document (tags omitted).
UniProt O75388, whole entry: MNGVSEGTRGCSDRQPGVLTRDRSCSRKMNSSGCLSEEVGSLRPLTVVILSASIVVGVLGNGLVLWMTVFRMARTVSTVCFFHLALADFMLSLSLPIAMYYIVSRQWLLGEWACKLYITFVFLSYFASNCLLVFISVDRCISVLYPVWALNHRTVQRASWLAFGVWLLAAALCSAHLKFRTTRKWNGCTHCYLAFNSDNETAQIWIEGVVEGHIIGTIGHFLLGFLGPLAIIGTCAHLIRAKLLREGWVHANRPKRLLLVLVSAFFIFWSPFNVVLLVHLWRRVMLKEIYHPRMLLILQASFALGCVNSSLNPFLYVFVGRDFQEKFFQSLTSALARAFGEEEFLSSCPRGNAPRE

| Compound | activation |
| --- | --- |
| COc1ccc(C(=O)NCC2(N(C)C)CCCCC2)cc1Cl | inactive: -0.215% |
| CC(C)Oc1ccc(C(=O)NCC2(N(C)C)CCCCC2)cc1 | inactive: 12.7% |
| Cc1cccc(C(=O)NCC2(N(C)C)CCCCC2)c1 | inactive: -0.558% |
| COc1cc(C(=O)NCC2(N(C)C)CCCCC2)cc(OC)c1OC | inactive: 2.23% |
| CC(C)COc1ccc(C(=O)NCC2(N(C)C)CCCCC2)cc1 | inactive: 0.787% |
| COc1cccc(C(=O)NCC2(N3CCOCC3)CCCCC2)c1 | inactive: 3.2% |
| CN(C)C1(CNC(=O)c2ccccc2F)CCCCC1 | inactive: 4.51% |
| CN(C)C1(CNC(=O)c2cccc(Cl)c2)CCCCC1 | inactive: -1.21% |
| CCOc1cccc(C(=O)NCC2(N(C)C)CCCCC2)c1 | inactive: 15% |
| CCCCOc1ccccc1C(=O)NCC1(N(C)C)CCCCC1 | inactive: 9.55% |
| CN(C)C1(CNC(=O)c2ccccc2[N+](=O)[O-])CCCCC1 | inactive: -7.48% |

Source: PubChem BioAssay AID1346428 (National Center for Advancing Translational Sciences (NCATS), 2018)
